Details: UV-vis 263 nm, saturated solution, aged at 40 F. 0 day

C/C=C/C=C/C(=O)[O-].[K+] [Potassium Sorbate]
Abs (pH 3.0): 1.716
